Molecular target: Tg_CA (Toxoplasma gondii α-CA) (Toxoplasma gondii, UniProt S8F479)
Assay type: biochemical
Conditions: pH 7.5; read-out: KI (mM) Tg_CAα

Amino acid sequences for entries named in this document (tags omitted). Residues count along the entry.
UniProt S8F479, 486-829 limits assumed: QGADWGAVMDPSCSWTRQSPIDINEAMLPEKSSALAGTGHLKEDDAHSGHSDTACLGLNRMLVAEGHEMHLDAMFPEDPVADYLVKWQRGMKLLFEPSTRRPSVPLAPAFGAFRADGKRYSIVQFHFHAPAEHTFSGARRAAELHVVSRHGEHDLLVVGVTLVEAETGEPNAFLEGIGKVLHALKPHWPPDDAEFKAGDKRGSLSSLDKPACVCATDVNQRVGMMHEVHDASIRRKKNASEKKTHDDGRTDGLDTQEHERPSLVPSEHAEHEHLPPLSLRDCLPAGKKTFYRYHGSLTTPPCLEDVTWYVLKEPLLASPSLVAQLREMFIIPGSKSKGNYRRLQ

Work on fluorosulfonate [FSO3^–] yielded a Ki of 2.7 mM.

From article PMC11163988, “Cloning, expression, and purification of an α-carbonic anhydrase from Toxoplasma gondii to unveil its kinetic parameters and anion inhibition profile” (Journal of Enzyme Inhibition and Medicinal Chemistry, 2024)
